From patent US6953793B2 (priority 2000, dated 2005)

Sequences of proteins named here, by UniProt entry; tags and fusion partners are left off. Residues count along the entry.
UniProt P25774, 115-331: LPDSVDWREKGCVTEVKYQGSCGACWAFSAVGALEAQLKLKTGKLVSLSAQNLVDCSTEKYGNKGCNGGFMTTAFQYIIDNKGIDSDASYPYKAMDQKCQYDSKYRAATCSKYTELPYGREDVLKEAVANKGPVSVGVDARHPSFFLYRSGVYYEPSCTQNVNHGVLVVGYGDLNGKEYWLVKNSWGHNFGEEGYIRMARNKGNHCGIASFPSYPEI

Biological target: T1, Recombinant human cathepsin S (CatS) (Homo sapiens, UniProt P25774)
T1 construct: made in house; host or cells: baculovirus system (insect cells)
Assay: biochemical

First: COc1ccc2c(c1)[nH]c(=O)n2C1CCN(CC(O)Cn2nc(-c3ccc(Br)cc3)c3c2CCN(C(C)=O)C3)CC1 (stereo not shown) [Example 285, 1-(1-{3-[5-Acetyl-3-(4-bromo-phenyl)-4,5,6,7-tetrahydro-pyrazolo[4,3-c]pyridin-1-yl]-2-hydroxy-propyl}-piperidin-4-yl)-5-methoxy-1,3-dihydro-benzoimidazol-2-one]
Second: COc1ccc2c(c1)oc(=O)n2C1CCN(CC(O)Cn2nc(-c3ccc(Br)cc3)c3c2CCN(C(C)=O)C3)CC1 (stereo not shown) [Example 392, 3-(1-{3-[5-Acetyl-3-(4-bromo-phenyl)-4,5,6,7-tetrahydro-pyrazolo[4,3-c]pyridin-1-yl]-2-hydroxy-propyl}-piperidin-4-yl)-6-methoxy-3H-benzooxazol-2-one]
The IC50 of the first is 2.1-fold lower: 0.13 µM for the first, 0.27 µM for the second.

Compared with `CN(C)c1ccc2c(n1)n(C1CCN(CC(O)Cn3nc(-c4ccc(C(F)(F)F)cc4)c4c3CCN(S(C)(=O)=O)C4)CC1)c(=O)n2C` (stereo not shown) [Example 346, 5-Dimethylamino-3-(1-{2-hydroxy-3-[5-methanesulfonyl-3-(4-trifluoromethyl-phenyl)-4,5,6,7-tetrahydro-pyrazolo[4,3-c]pyridin-1-yl]-propyl}-piperidin-4-yl)-1-methyl-1,3-dihydro-imidazo[4,5-b]pyridin-2-one], `CN(C)c1ccc2c(n1)n(C1CCN(C[C@@H](O)Cn3nc(-c4ccc(C(F)(F)F)cc4)c4c3CCN(S(C)(=O)=O)C4)CC1)c(=O)n2C` [Example 385, (R)-5-Dimethylamino-3-(1-{2-hydroxy-3-[5-methanesulfonyl-3-(4-trifluoromethyl-phenyl)-4,5,6,7-tetrahydro-pyrazolo[4,3-c]pyridin-1-yl]-propyl}-piperidin-4-yl)-1-methyl-1,3-dihydro-imidazo[4,5-b]pyridin-2-one] is 1.8-fold lower in IC50: 0.07 µM for the first, 0.04 µM for the second. The second is the more potent here.

First: CS(=O)(=O)Oc1nc2ccccc2n1C1CCN(CCCn2nc(-c3ccc(Br)cc3)c3c2CCN(S(C)(=O)=O)C3)CC1 [Example 104, Methanesulfonic acid 1-(1-{3-[3-(4-bromo-phenyl)-5-methanesulfonyl-4,5,6,7-tetrahydro-pyrazolo[4,3-c]pyridin-1-yl]-propyl}-piperidin-4-yl)-1H-benzoimidazol-2-yl ester]
Second: CCOC(=O)Cn1c(=O)n(C2CCN(CC(O)Cn3nc(-c4ccc(Br)cc4)c4c3CCN(S(C)(=O)=O)C4)CC2)c2ccccc21 (stereo not shown) [Example 379, [3-(1-{3-[3-(4-Bromo-phenyl)-5-methanesulfonyl-4,5,6,7-tetrahydro-pyrazolo[4,3-c]pyridin-1-yl]-2-hydroxy-propyl}-piperidin-4-yl)-2-oxo-2,3-dihydro-benzoimidazol-1-yl]-acetic acid ethyl ester]
The IC50 of the first is 1.7-fold higher: 0.12 µM for the first, 0.07 µM for the second.

`CC(=O)N1CCc2c(c(-c3ccc(Cl)c(C)c3)nn2CC(O)CN2CCC(n3c(=O)n(CCO)c4ccccc43)CC2)C1` (stereo not shown) [Example 308, 1-(1-{3-[5-Acetyl-3-(4-chloro-3-methyl-phenyl)-4,5,6,7-tetrahydro-pyrazolo[4,3-c]pyridin-1-yl]-2-hydroxy-propyl}-piperidin-4-yl)-3-(2-hydroxy-ethyl)-1,3-dihydro-benzoimidazol-2-one] and `CC(=O)N1CCc2c(c(-c3ccc(Cl)c(C)c3)nn2CC(O)CN2CCC(n3c(=O)n(CC#N)c4ccccc43)CC2)C1` (stereo not shown) [Example 307, [3-(1-{3-[5-Acetyl-3-(4-chloro-3-methyl-phenyl)-4,5,6,7-tetrahydro-pyrazolo[4,3-c]pyridin-1-yl]-2-hydroxy-propyl}-piperidin-4-yl)-2-oxo-2,3-dihydro-benzoimidazol-1-yl]acetonitrile] are within 1.5-fold of each other in IC50: 0.13 µM for the first, 0.09 µM for the second.

Compared with `CC(=O)N1CCc2c(c(-c3ccc(Cl)c(C)c3)nn2CC(O)CN2CCC(Oc3cccc(Cl)c3)CC2)C1` (stereo not shown) [Example 244, 1-(3-(4-Chloro-3-methyl-phenyl)-1-{3-[4-(3-chloro-phenoxy)-piperidin-1-yl]-2-hydroxy-propyl}-1,4,6,7-tetrahydro-pyrazolo[4,3-c]pyridin-5-yl)-ethanone], `CC(=O)N1CCc2c(c(-c3ccc(Br)cc3)nn2CC(O)CN2CCC(Oc3ccc(Cl)c(Cl)c3)CC2)C1` (stereo not shown) [Example 239, 1-(3-(4-Bromo-phenyl)-1-{3-[4-(3,4-dichloro-phenoxy)-piperidin-1-yl]-2-hydroxy-propyl}-1,4,6,7-tetrahydro-pyrazolo[4,3-c]pyridin-5-yl)-ethanone] is 1.9-fold lower in IC50: 0.65 µM for the first, 0.34 µM for the second. The second is the more potent here.

First: CC(=O)N1CCc2c(c(-c3ccc(SC(F)(F)F)cc3)nn2CC(O)CN2CCC(n3c(=O)[nH]c4ccccc43)CC2)C1 (stereo not shown) [Example 257, 1-(1-{3-[5-Acetyl-3-(4-trifluoromethylsulfanyl-phenyl)-4,5,6,7-tetrahydro-pyrazolo[4,3-c]pyridin-1-yl]-2-hydroxy-propyl}-piperidin-4-yl)-1,3-dihydro-benzoimidazol-2-one]
Second: CC(=O)N1CCc2c(c(-c3ccc(I)cc3)nn2CC(O)CN2CCC(n3c(=O)[nH]c4ccccc43)CC2)C1 (stereo not shown) [Example 253, 1-(1-{3-[5-Acetyl-3-(4-iodo-phenyl)-4,5,6,7-tetrahydro-pyrazolo[4,3-c]pyridin-1-yl]-2-hydroxy-propyl}-piperidin-4-yl)-1,3-dihydro-benzoimidazol-2-one]
The IC50 of the first is 1.9-fold higher: 0.26 µM for the first, 0.14 µM for the second.

`CC(=O)N1CCc2c(c(-c3ccc(Cl)cc3)nn2CC(O)CN2CCC(Nc3cc(Cl)ccc3C)CC2)C1` (stereo not shown) [Example 226, 1-[1-{3-[4-(5-Chloro-2-methyl-phenylamino)-piperidin-1-yl]-2-hydroxy-propyl}-3-(4-chloro-phenyl)-1,4,6,7-tetrahydro-pyrazolo[4,3-c]pyridin-5-yl]-ethanone] and `CC(=O)N1CCc2c(c(-c3ccc(C(F)(F)F)cc3)nn2CC(O)CN2CCC(Oc3ccc(Cl)cc3)CC2)C1` (stereo not shown) [Example 249, 1-[1-{3-[4-(4-Chloro-phenoxy)-piperidin-1-yl]-2-hydroxy-propyl}-3-(4-trifluoromethyl-phenyl)-1,4,6,7-tetrahydro-pyrazolo[4,3-c]pyridin-5-yl]-ethanone] are within 1.5-fold of each other in IC50: 0.75 µM for the first, 0.69 µM for the second.

`CC(=O)N1CCc2c(c(-c3ccc(Br)cc3)nn2CC(O)CN2CCC(n3c(=O)[nH]c4cc(Cl)c(Cl)cc43)CC2)C1` (stereo not shown) [Example 275, 1-(1-{3-[5-Acetyl-3-(4-bromo-phenyl)-4,5,6,7-tetrahydro-pyrazolo[4,3-c]pyridin-1-yl]-2-hydroxy-propyl}-piperidin-4-yl)-5,6-dichloro-1,3-dihydro-benzoimidazol-2-one] and `CC(=O)N1CCc2c(c(-c3ccc(Br)cc3)nn2CC(O)CN2CCC(n3c(=O)[nH]c4ccc(Cl)cc43)CC2)C1` (stereo not shown) [Example 259, 1(1-{3-[5-Acetyl-3-(4-bromo-phenyl)-4,5,6,7-tetrahydro-pyrazolo[4,3-c]pyridin-1-yl]-2-hydroxy-propyl}-piperidin-4-yl)-6-chloro-1,3-dihydro-benzoimidazol-2-one] are the same in IC50: 0.12 µM for the first, 0.12 µM for the second.

Compared with `CC(=O)N1CCc2c(c(-c3ccc(Cl)c(Cl)c3)nn2CC(O)CN2CCC(n3c(=O)[nH]c4ccccc43)CC2)C1` (stereo not shown) [Example 290, 1-(1-{3-[5-Acetyl-3-(3,4-dichloro-phenyl)-4,5,6,7-tetrahydro-pyrazolo[4,3-c]pyridin-1-yl]-2-hydroxy-propyl}-piperidin-4-yl)-1,3-dihydro-benzoimidazol-2-one], `CCNC(=O)N1CCc2c(c(-c3ccc(Cl)c(C)c3)nn2CC(O)CN2CCC(n3c(=O)[nH]c4ccccc43)CC2)C1` (stereo not shown) [Example 272, 3-(4-Chloro-3-methyl-phenyl)-1-{2-hydroxy-3-[4-(2-oxo-2,3-dihydro-benzoimidazol-1-yl)-piperidin-1-yl]-propyl}-1,4,6,7-tetrahydro-pyrazolo[4,3-c]pyridine-5-carboxylic acid ethylamide] is 2.2-fold higher in IC50: 0.15 µM for the first, 0.33 µM for the second. The first is the more potent here.

`CC(=O)N1CCc2c(c(-c3ccc(Cl)c(C)c3)nn2CC(O)CN2CCC(n3c(=O)oc4ccc(Cl)cc43)CC2)C1` (stereo not shown) [Example 396, 3-(1-{3-[5-Acetyl-3-(4-chloro-3-methyl-phenyl)-4,5,6,7-tetrahydro-pyrazolo[4,3-c]pyridin-1-yl]-2-hydroxy-propyl}-piperidin-4-yl)-5-chloro-3H-benzooxazol-2-one] and `CC(=O)N1CCc2c(c(-c3ccc(Br)cc3)nn2CC(O)CN2CCC(n3c(=O)oc4ccc(Cl)cc43)CC2)C1` (stereo not shown) [Example 386, 3-(1-{3-[5-Acetyl-3-(4-bromo-phenyl)-4,5,6,7-tetrahydro-pyrazolo[4,3-c]pyridin-1-yl]-2-hydroxy-propyl}-piperidin-4-yl)-5-chloro-3H-benzooxazol-2-one] are within 1.5-fold of each other in IC50: 0.31 µM for the first, 0.37 µM for the second.

First: CC(=O)N1CCc2c(c(-c3ccc(C(F)(F)F)cc3)nn2CC(O)CN2CCC(n3c(=O)n(CCO)c4ccccc43)CC2)C1 (stereo not shown) [Example 313, 1-(1-{3-[5-Acetyl-3-(4-trifluoromethyl-phenyl)-4,5,6,7-tetrahydro-pyrazolo[4,3-c]pyridin-1-yl]-2-hydroxy-propyl}-piperidin-4-yl)-3-(2-hydroxy-ethyl)-1,3-dihydro-benzoimidazol-2-one]
Second: CC(=O)N1CCc2c(c(-c3ccc(C(F)(F)F)cc3)nn2CC(O)CN2CCC(Oc3nc4ccccc4s3)CC2)C1 (stereo not shown) [Example 400, 1-[1-{3-[4-(Benzothiazol-2-yloxy)-piperidin-1-yl]-2-hydroxy-propyl}-3-(4-trifluoromethyl-phenyl)-1,4,6,7-tetrahydro-pyrazolo[4,3-c]pyridin-5-yl]-ethanone]
The IC50 of the first is 2.4-fold lower: 0.23 µM for the first, 0.55 µM for the second.

Going from `CC(=O)N1CCc2c(c(-c3ccc(Br)cc3)nn2CC(O)CN2CCC(Oc3ccccc3C)CC2)C1` (stereo not shown) [Example 233, 1-{3-(4-Bromo-phenyl)-1-[2-hydroxy-3-(4-o-tolyloxy-piperidin-1-yl)-propyl]-1,4,6,7-tetrahydro-pyrazolo[4,3-c]pyridin-5-yl}-ethanone] to `CC(=O)N1CCc2c(c(-c3ccc(Br)cc3)nn2CC(O)CN2CCC(n3c(=O)[nH]c4cccc(Cl)c43)CC2)C1` (stereo not shown) [Example 286, 1-(1-{3-[5-Acetyl-3-(4-bromo-phenyl)-4,5,6,7-tetrahydro-pyrazolo[4,3-c]pyridin-1-yl]-2-hydroxy-propyl}-piperidin-4-yl)-7-chloro-1,3-dihydro-benzoimidazol-2-one], the IC50 falls from 0.34 µM to 0.21 µM (1.6-fold). The second is the more potent here.

Work on `CCOC(=O)Cn1c(=O)n(C2CCN(CC(O)Cn3nc(-c4ccc(Cl)c(C)c4)c4c3CCN(C(C)=O)C4)CC2)c2ccccc21` (stereo not shown) [Example 305, [3-(1-{3-[5-Acetyl-3-(4-chloro-3-methyl-phenyl)-4,5,6,7-tetrahydro-pyrazolo[4,3-c]pyridin-1-yl]-2-hydroxy-propyl}-piperidin-4-yl)-2-oxo-2,3-dihydro-benzoimidazol-1-yl]-acetic acid ethyl ester] yielded an IC50 of 0.11 µM.
